Values quoted from earlier work in US11702469B2, “Recombinant EGFL7, EGFL7 antibodies, and uses thereof” (Ohio State Innovation Foundation, priority 2017, dated 2023).

Test system: acute myeloid leukemia
Details: low-dose maintenance therapy vs none; cited from earlier work

For “Interleukin-2: low-dose recombinant interleukin-2 maintenance therapy”, the patient outcome is given as “not associated with differences in patient outcome”.
